Legend:
PKB = biological target: T1, PKB (Homo sapiens, UniProt P31749); assay: PKB in vitro kinase activity assay; format: biochemical; conditions: read-out: in vitro PKB inhibition IC50; Table 3, assay A2
T1 construct: His; HA; made in house

Amino acid sequences for entries named in this document (tags omitted).
UniProt P31749, whole entry, species assumed: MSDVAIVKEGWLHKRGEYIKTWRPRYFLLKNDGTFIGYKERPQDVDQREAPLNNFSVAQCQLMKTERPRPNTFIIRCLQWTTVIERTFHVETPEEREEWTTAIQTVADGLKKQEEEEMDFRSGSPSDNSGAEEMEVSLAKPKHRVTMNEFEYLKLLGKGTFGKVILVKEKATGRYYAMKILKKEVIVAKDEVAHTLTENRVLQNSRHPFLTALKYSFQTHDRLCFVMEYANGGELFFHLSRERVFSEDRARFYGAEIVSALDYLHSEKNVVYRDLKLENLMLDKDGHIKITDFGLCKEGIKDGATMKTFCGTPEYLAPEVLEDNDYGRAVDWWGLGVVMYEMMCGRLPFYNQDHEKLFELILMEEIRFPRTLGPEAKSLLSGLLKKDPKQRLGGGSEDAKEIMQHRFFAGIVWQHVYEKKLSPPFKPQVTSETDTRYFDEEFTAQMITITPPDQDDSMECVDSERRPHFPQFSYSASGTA

Hep G2 cells = assay: In vitro metabolism in hepatic carcinoma cells (LC-MS); format: in vitro ADME
Procedure: In addition, PTR 6320 was analyzed by LC-MS for in vitro metabolism in hepatic carcinoma cells. […] Hep G2 cells were incubated with 30 μM of PTR 6320 for 6 hours and peptides were extracted from the supernatants and the pellets of the cells. Samples were analyzed by LC-MS using pep 24 C18 Vydac 1.0*150 mm column in eluent gradient of MeCN:water (+0.1%TFA) with MS ESI detector in splitless mode. […] This indicates slow degradation of PTR 6320 in hepatic cells implying that peptide may be retained in the system enough time for efficient distribution.

normal cells = assay: Safety to normal cells in vitro; format: cell-based
From the text: Several cancer cell lines were used to determine the activity of PKB inhibitor compounds in intact cells. The human prostate carcinoma cell lines, PC-3 and LNCaP. The human acute T cells leukemia cell line, Jurkat. Human breast carcinoma cell lines: MCF-7 and MDA468 and renal adenocarcinoma cell 786-O. LNCaP,MDA468, 786-O and Jurkat cell lines express high basal level of activated PKB. PC-3 expresses moderate level of activated PKB. MCF-7 expresses low but inducible level of activated PKB. Control cells are PBLs, normal peripheral blood lymphocytes which obtained from normal donors (blood bank) and MCF10F which is a non tumorogenic breast cell line. The control cells are used to compare the effect of the protein kinase inhibitors on the tested cancer cells and the normal cells.
Table 9 represents the cell death induced by the protein kinase inhibitors in prostate cancer cell lines vs. normal cells. The magnitude of cell death induced is in direct correlation with the levels of activated PKB in the various cells, as depicted in FIG. 12. […] Levels are in direct correlation with the magnitude of cell death induced by our inhibitors, as depicted in table 9.

MTD determination = format: in vivo; conditions: assay C1, mice
Procedure: Balb/C mice (male, 4-6 weeks old from Harlan Co. Israel) were used to determine the MTD.
In addition, acute and chronic MTD were determined. As a first step, the acute MTD was determined after one IP injection of several dosages of 160, 80, 40, 20 and 10 mg/Kg body weight. For further testing the chronic MTD, mice were IP injected with 50%, 25% and 12.5% of the acute MTD daily for 3 consecutive weeks. Mice were daily monitored for general health status for the treatment period and 3 more additional weeks. At the end of the experiment full autopsy was preformed.

“Arg-Gln-Ile-Lys-Ile-Trp-Phe-Gln-Asn-Arg-Arg-Met-Lys-Trp-Lys-Lys-6154 [Peptide AB60025-2]” showed an IC50 (PKB) of 1000 nM.
“Arg-Gln-Ile-Lys-Ile-Trp-Phe-Gln-Asn-Arg-Arg-Met-Lys-Trp-Lys-Lys-6184 [Peptide AB60025-4]” gave an IC50 (PKB) of 200 nM.
For “Cholesteryl-O—CO-(DLys)3-Arg-Pro-Arg-Nva-Tyr-Dap-Hol-NH2 [PTR 6320]”, the “undegraded peptide remaining in Hep G2 cells” value (Hep G2 cells; 30 μM, 6 hours) was “still substantial amount of undegraded peptide”, the “in vitro metabolism in hepatic carcinoma cells” value (Hep G2 cells; time course) was “initial drug metabolism after 1 hour and advanced metabolism after 24 hours” and the “concentration safe to normal cells” value (normal cells) was 40 µM.
In the case of “Cholesteryl-O—CO-Arg-Pro-Arg-Nva-Tyr-Dap-Hol-NH2 [PTR 6164]”, the “MTD (maximal tolerated dose)” value (MTD determination) is reported as “above 130 mg/kg”.

From patent publication US20070078092A1, “Cell permeable conjugates of peptides for inhibition of protein kinases” (priority 2003, published 2007)
